# Screening data: PubChem BioAssay, Broad Institute
# Hits are enriched below; roughly 1.2% of the tested compounds scored in any of these assays.
# miR-122 sensor: miR-122 inhibition in Huh7 cells. AID 602342. Huh7 miR-122 Renilla luciferase sensor, 48 h; neutral wells = 0, positive control = 100. actives 0.3% (n = 340,000). activation (reporter increase), % at 12.5 µM;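 active means mean replicate activation score at least 90 and every replicate individually at or above 90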;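 further: higher luciferase means less miR-122 activity so hits act as miR-122 inhibitors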
# UUG fidelity: yeast start codon fidelity modulation | S. cerevisiae UUG-firefly luciferase reporter, luminescence/redox ratio | activity score, % at 18.7 µM | hit rate 0.13% among 350,000 | AID 602363;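 active means replicate mean at a twofold rise or more, about +100% in these data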;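 further: firefly luciferase made from a UUG start codon reports start codon fidelity; reporter light over untreated wells divided by growth signal over untreated wells; some hits fall short of that in this replicate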
# C2C12 statin: suppression of simvastatin myotoxicity | C2C12 myotubes + simvastatin, ATP luminescence, 48 h; scaled: DMSO 0, geranylgeraniol control 100 | rescue of ATP level, % at 7.49 µM | actives 0.78% (n = 330,000) | AID 602340;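 active means mean ATP rescue above about 67%, or every replicate alone reaching that limit, limit read from the data, passing the limit was not always enough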;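 further: myotubes were challenged with 10 µM simvastatin during compound exposure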
# Cneo AK release: Cryptococcus neoformans lysis via adenylate kinase release. lysis activity, % at 15 µM. C. neoformans lysis, adenylate kinase release luminescence, 4 h; normalised: neutral wells 0, clomiphene wells 100. actives 0.2% (n = 360,000);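 active means mean lysis activity across replicates of at least 80%, whatever share of replicates individually reach that level; inactive means mean lysis activity below 80%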
#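 Material – log-phase Cryptococcus neoformans yeast cells · Input – 5 × 10^6 yeast cells/mL · Medium – fresh YPD growth medium · Doses – single compound concentration per well · Timing – static 4 h at 37 °C with compound, 1 h detection · Detection – adenylate kinase release luminescence · Read-out – signal increase indicating cell lysis · Control set – Clomiphene as positive lysis control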
# Starred values were filed as active, the others as inactive; . = not tested or not shown; ! = not active in a repeat; [ ] = remark or other dose.
# Labels used below: A = miR-122 sensor; B = UUG fidelity; C = C2C12 statin; D = Cneo AK release
SMILES: C[C@@H]1CN([C@H](C)CO)C(=O)Cc2cc(NS(=O)(=O)c3cccs3)ccc2O[C@H]1CN(C)CC1CC1
  A: 12[16.7 µM]; B: 15; C: 22; D: -3
SMILES: C[C@H]1CN([C@@H](C)CO)S(=O)(=O)c2ccc(C#CC3CCCCC3)cc2O[C@H]1CN(C)C
  A: -25[16.7 µM]; B: -1; C: -5; D: 10
SMILES: C[C@H](CO)N1C[C@H](C)[C@H](CN(C)C)Oc2cc(-c3ccccc3F)ccc2S1(=O)=O
  A: -2[16.7 µM]; B: -10; C: 20; D: 4
SMILES: CC(=O)N1CCN(c2nnnn2-c2ccccc2)CC1
  A: -1; B: -11; C: 126*; D: -1
SMILES: C[C@H]1CCCCO[C@@H](CN(C)C(=O)NC2CCCCC2)[C@@H](C)CN([C@@H](C)CO)C(=O)c2cc(NC(=O)c3ccncc3)ccc2O1
  A: -3[16.7 µM]; B: 14; C: .; D: 52
SMILES: O=C1C(=C(c2ccccc2)c2ccccc2)Nc2ccccc21
  A: -13; B: -25; C: 100*; D: -1
SMILES: NC12CC3CC(C1)CC(CC(=O)O)(C3)C2
  A: -3; B: -22; C: -6; D: 8
SMILES: NC12CC3CC(C1)CC(CO)(C3)O2
  A: -2; B: .; C: 111*; D: .
SMILES: C[C@@H]1CCCCO[C@@H](CN(C)S(=O)(=O)c2cccs2)[C@H](C)CN([C@@H](C)CO)C(=O)c2cc(NC(=O)CCC(F)(F)F)ccc2O1
  A: 47[16.7 µM]; B: 39; C: .; D: 98*
SMILES: C[C@@H]1CN([C@H](C)CO)C(=O)c2c(c3ccccc3n2C)-c2ccccc2CO[C@H]1CN(C)S(=O)(=O)c1cccs1
  A: .; B: .; C: 6; D: 90*
SMILES: C[C@@H]1CN([C@@H](C)CO)C(=O)c2cc(NC(=O)CCC(F)(F)F)ccc2O[C@@H](C)CCCCO[C@@H]1CN(C)S(=O)(=O)c1cccs1
  A: 16[16.7 µM]; B: 13; C: .; D: 0
SMILES: C[C@@H]1CN([C@H](C)CO)C(=O)c2cc(NC(=O)Nc3ccc(F)cc3)ccc2O[C@@H](C)CCCCO[C@H]1CN(C)S(=O)(=O)c1cccs1
  A: -5; B: -4; C: 141*!; D: 0
SMILES: C[C@@H]1CCCCO[C@@H](CN(C)S(=O)(=O)c2ccccc2)[C@H](C)CN([C@@H](C)CO)C(=O)c2cc(NC(=O)Nc3ccc(F)cc3)ccc2O1
  A: -4[16.7 µM]; B: 29; C: .; D: 105*
SMILES: C[C@H]1CCCCO[C@H](CN(C)S(=O)(=O)c2cccs2)[C@@H](C)CN([C@@H](C)CO)C(=O)c2cc(NC(=O)Nc3ccc(F)cc3)ccc2O1
  A: 15[16.7 µM]; B: -19; C: -84; D: -4
SMILES: CCCNC(=O)C[C@H]1CC[C@H]2[C@@H](COc3ccc(NC(=O)Cc4cccs4)cc3C(=O)N2C)O1
  A: -30[16.7 µM]; B: 2; C: 3; D: -3
SMILES: C[C@H]1CN([C@@H](C)CO)C(=O)c2cc(NC(=O)Cc3ccccc3)ccc2O[C@@H]1CN(C)S(=O)(=O)c1cccs1
  A: 0[16.7 µM]; B: 11; C: 98*; D: 4
SMILES: CC(C)NC(=O)Nc1ccc2c(c1)C(=O)N([C@@H](C)CO)C[C@H](C)[C@@H](CN(C)S(=O)(=O)c1cccs1)OCCCC[C@H](C)O2
  A: 37[16.7 µM]; B: 29; C: .; D: 87*
SMILES: C[C@@H]1CCCCO[C@@H](CN(C)C(=O)Nc2cccc3ccccc23)[C@H](C)CN([C@@H](C)CO)C(=O)c2cc(NC(=O)C3CCCCC3)ccc2O1
  A: -13[16.7 µM]; B: 14; C: .; D: -2
SMILES: CCC(=O)N1C[C@H](O)COC[C@H]2O[C@H](CC(=O)NCc3ccccc3Cl)CC[C@@H]21
  A: -9[16.7 µM]; B: .; C: -16; D: 2
SMILES: O=C(Nc1nc2c(s1)CCCC2)c1ccc(Br)o1
  A: 0; B: -23; C: 112*; D: -11

# One compound at a time (already shown). Order of values: miR-122 sensor | UUG fidelity | C2C12 statin | Cneo AK release
# C[C@@H]1CN([C@H](C)CO)C(=O)c2cc(NC(=O)Nc3ccc(F)cc3)ccc2O[C@@H](C)CCCCO[C@H]1CN(C)S(=O)(=O)c1cccs1 is listed as -5 | -4 | 141*! | 0
# O=C(Nc1nc2c(s1)CCCC2)c1ccc(Br)o1 is listed as 0 | -23 | 112* | -11

# Next part.
# Labels used below: A = miR-122 sensor; B = UUG fidelity; C = C2C12 statin; D = Cneo AK release
SMILES: CCN(CC)S(=O)(=O)c1ccc(NC(=O)c2ccc(N(C)S(C)(=O)=O)cc2)cc1
  A: -6; B: -3; C: 104*; D: 0
SMILES: CCN(CC)S(=O)(=O)c1ccc(NC(=O)c2ccccc2N(C)S(C)(=O)=O)cc1
  A: 3; B: -6; C: -9; D: 2
SMILES: Cc1cccc(NC(=O)C[C@H]2CC[C@H]3[C@@H](COc4ccc(NC(=O)NC(C)C)cc4C(=O)N3C)O2)c1
  A: -58[16.7 µM]; B: 0; C: 3; D: -2
SMILES: CC(=O)Nc1ccc(/C=N/NS(=O)(=O)c2cc(C)ccc2C)cc1
  A: 464*; B: -12; C: .; D: 0
SMILES: CC(=O)Nc1ccc(S(=O)(=O)NN=Cc2ccc(Cl)c(Cl)c2)cc1
  A: 65; B: .; C: 0; D: .
SMILES: CCOc1ccc2nc(SCC#N)c(C#N)cc2c1
  A: -3; B: -20; C: 80*; D: 1
SMILES: CCSc1nc2ccc(OC)cc2cc1C#N
  A: 0; B: -18; C: 8; D: 0
SMILES: Cc1ccccc1OCCCC(=O)Nc1ccccc1C(F)(F)F
  A: -3; B: -14; C: 3; D: 1
SMILES: Cc1cccc(OCCCC(=O)Nc2ccccc2C(F)(F)F)c1
  A: 2; B: 10; C: 97*; D: 0
SMILES: C[C@@H]1CN([C@H](C)CO)C(=O)c2cc(NS(=O)(=O)c3cccs3)ccc2O[C@@H]1CN(C)S(=O)(=O)c1cccs1
  A: 33[16.7 µM]; B: .; C: 1; D: .
